Chains of the proteins cited; added tags and fusions are not shown.
UniProt P15170, whole entry: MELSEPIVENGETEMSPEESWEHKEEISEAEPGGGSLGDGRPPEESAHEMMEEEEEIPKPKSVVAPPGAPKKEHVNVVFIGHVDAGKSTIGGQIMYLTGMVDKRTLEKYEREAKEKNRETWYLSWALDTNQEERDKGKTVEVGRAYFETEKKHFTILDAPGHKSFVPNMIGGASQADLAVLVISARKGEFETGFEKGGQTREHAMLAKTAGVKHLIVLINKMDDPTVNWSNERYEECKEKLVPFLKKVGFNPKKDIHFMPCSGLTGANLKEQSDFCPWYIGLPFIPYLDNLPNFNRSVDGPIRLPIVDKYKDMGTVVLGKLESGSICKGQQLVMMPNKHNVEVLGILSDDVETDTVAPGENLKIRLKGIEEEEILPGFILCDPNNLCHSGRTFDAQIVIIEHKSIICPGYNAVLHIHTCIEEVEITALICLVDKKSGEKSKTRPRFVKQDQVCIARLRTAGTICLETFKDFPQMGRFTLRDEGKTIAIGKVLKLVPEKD
UniProt Q96SW2, whole entry: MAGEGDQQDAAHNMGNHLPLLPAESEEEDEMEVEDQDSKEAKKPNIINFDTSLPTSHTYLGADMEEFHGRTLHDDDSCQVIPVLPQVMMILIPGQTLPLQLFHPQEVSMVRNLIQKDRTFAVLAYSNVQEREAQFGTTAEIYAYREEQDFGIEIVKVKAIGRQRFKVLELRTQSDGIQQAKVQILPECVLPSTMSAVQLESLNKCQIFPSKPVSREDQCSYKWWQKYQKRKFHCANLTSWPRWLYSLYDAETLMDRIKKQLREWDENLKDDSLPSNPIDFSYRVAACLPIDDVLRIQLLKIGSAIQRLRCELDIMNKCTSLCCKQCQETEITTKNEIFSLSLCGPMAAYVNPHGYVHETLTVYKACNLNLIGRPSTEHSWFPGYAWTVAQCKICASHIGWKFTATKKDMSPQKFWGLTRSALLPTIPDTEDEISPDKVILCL
UniProt Q13422, whole entry: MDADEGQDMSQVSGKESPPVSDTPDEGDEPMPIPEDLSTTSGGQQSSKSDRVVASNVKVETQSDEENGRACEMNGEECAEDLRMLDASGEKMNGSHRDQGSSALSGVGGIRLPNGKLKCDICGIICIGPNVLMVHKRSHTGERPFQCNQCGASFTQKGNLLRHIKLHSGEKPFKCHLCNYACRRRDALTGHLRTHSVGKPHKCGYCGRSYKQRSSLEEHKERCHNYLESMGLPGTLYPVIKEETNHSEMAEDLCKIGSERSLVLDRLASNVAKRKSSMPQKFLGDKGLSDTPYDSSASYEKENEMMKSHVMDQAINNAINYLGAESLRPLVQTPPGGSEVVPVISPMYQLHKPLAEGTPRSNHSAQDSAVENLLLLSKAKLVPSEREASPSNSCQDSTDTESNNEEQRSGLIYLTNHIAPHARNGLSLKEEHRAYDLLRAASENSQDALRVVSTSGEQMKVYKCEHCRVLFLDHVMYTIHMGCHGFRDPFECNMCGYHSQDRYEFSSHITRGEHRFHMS
UniProt Q9UKS7, whole entry: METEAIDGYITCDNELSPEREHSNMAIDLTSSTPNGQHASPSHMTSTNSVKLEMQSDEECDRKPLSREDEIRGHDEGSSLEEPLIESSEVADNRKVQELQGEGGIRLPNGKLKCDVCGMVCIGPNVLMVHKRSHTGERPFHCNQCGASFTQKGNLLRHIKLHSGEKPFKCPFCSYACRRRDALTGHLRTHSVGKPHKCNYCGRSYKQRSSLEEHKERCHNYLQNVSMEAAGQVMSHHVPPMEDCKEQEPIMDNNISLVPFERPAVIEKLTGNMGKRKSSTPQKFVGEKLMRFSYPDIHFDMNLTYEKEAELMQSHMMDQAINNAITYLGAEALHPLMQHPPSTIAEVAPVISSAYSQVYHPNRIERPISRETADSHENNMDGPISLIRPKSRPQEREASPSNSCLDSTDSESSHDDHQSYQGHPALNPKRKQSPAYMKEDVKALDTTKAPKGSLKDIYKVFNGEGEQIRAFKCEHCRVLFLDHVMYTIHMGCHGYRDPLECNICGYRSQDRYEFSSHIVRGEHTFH
UniProt Q9UKT9, whole entry: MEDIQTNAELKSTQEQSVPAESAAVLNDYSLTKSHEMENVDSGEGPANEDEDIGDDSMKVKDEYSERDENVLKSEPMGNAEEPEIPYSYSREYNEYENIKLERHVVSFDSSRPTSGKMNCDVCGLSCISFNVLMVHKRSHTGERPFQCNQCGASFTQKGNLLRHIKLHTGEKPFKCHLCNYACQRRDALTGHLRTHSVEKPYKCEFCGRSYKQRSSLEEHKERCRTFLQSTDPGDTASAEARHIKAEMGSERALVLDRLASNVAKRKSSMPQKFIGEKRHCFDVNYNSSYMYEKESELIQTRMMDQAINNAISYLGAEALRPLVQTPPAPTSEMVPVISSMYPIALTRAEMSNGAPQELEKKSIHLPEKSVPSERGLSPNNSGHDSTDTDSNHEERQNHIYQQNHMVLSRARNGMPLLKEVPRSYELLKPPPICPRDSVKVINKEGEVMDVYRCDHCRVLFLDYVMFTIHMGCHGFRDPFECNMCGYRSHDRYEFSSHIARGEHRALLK
UniProt P30291, whole entry: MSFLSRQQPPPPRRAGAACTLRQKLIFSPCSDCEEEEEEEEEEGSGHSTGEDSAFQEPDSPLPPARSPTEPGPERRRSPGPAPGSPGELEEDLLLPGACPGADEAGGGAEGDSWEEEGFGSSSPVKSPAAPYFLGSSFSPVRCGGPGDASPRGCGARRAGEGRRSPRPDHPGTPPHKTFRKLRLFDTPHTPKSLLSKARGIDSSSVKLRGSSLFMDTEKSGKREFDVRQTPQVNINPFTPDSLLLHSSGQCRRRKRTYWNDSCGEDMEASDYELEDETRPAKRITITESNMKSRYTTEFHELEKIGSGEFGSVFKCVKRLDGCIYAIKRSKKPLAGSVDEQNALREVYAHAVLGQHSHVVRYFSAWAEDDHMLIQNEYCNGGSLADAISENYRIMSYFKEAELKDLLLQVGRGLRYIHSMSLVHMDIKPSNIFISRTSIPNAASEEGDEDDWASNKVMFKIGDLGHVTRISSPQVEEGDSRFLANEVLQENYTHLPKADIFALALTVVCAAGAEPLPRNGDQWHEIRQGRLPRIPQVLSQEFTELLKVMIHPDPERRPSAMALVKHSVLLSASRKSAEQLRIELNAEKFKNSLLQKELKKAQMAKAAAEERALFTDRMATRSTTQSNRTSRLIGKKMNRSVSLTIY
UniProt P48729, whole entry: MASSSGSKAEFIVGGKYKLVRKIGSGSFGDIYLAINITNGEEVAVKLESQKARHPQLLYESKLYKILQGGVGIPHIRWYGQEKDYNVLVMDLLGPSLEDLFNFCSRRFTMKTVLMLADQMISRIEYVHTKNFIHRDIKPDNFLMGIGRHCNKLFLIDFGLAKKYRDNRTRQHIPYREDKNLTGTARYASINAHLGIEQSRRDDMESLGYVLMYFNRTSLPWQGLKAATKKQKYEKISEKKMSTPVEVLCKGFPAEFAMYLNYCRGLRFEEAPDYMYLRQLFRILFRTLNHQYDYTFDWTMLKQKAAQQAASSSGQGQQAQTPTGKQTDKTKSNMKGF
UniProt Q16531, whole entry partner: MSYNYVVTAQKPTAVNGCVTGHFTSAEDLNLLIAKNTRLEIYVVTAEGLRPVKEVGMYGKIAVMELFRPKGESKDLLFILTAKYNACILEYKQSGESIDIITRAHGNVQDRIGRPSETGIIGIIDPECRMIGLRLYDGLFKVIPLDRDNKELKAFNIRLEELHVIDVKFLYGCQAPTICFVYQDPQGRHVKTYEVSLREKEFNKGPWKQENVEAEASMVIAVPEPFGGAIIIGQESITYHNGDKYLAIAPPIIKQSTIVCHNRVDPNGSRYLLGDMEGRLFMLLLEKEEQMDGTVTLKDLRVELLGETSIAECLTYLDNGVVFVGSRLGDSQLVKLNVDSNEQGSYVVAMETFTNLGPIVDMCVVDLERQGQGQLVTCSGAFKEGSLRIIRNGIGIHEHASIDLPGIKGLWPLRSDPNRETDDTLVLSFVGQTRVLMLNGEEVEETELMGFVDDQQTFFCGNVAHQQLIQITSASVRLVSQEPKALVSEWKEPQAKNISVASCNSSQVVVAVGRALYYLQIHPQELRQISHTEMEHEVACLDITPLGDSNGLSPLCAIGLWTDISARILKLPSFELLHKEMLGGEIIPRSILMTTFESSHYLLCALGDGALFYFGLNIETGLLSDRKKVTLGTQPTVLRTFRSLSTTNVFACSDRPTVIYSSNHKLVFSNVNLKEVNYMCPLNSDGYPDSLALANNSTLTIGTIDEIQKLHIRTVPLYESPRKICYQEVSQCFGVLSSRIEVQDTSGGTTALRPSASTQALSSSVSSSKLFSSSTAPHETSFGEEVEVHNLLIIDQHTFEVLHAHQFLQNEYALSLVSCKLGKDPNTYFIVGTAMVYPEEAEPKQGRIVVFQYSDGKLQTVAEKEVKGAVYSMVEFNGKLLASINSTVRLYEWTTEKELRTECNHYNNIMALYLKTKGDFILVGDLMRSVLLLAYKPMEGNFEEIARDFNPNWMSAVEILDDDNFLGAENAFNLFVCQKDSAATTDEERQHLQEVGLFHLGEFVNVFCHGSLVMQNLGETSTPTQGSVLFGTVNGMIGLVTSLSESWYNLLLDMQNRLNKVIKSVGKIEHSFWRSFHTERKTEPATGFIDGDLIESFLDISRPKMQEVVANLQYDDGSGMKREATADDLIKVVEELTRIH

In EP4834897A1, “COMPOUNDS WITH TWO AZAHETEROCYCLES SUBSTITUTED ISOINDOLINONE SKELETON AND USES THEREOF” (dated 2026):

Biological target: GSPT1 (Homo sapiens, UniProt P15170+Q96SW2)
Assay: Western blot assay of substrate protein degradation in hPBMCs
Details: 24 hours treatment, compounds at 50 nM and 500 nM (concentration behind the class not stated)

Row | Structure (SMILES) | substrate protein remaining % (GSPT1)
1 | CC1(C)CCC(C(=O)N2CCN(C3CCN(Cc4cc(F)c5c(c4)CN(C4CCC(=O)NC4=O)C5=O)CC3(F)F)CC2)=C(c2ccc(Cl)cc2)C1 (centres unmarked) | A (0% ≤ substrate protein remaining % ≤ 80%)
2 | O=C1CCC(N2Cc3cc(CCN4CCC(N5CCN(C(c6ccccc6)c6ccccc6)CC5)C(F)(F)C4)ccc3C2=O)C(=O)N1 (centres unmarked) | A (0% ≤ substrate protein remaining % ≤ 80%)
3 | CC1(C)CCC(C(=O)N2CCN(C3CCN(C(=O)c4cccc5c4C(=O)N(C4CCC(=O)NC4=O)C5=O)CC3(F)F)CC2)=C(c2ccc(Cl)cc2)C1 (centres unmarked) | A (0% ≤ substrate protein remaining % ≤ 80%)
4 | O=C1CCC(N2Cc3cc(CN4CCC(N5CCN(C(c6ccccc6)c6ccccn6)CC5)C(F)(F)C4)ccc3C2=O)C(=O)N1 (centres unmarked) | A (0% ≤ substrate protein remaining % ≤ 80%)
5 | O=C1CCC(N2Cc3cc(CN4CCC(N5CCN(c6noc7cc(F)ccc67)CC5)CC4)ccc3C2=O)C(=O)N1 (centres unmarked) | A (0% ≤ substrate protein remaining % ≤ 80%)
6 | O=C1CCC(N2Cc3cc(C(=O)N4CCC(N5CCC(c6noc7cc(F)ccc67)CC5)C(F)(F)C4)cc(F)c3C2=O)C(=O)N1 (centres unmarked) | B (80%< substrate protein remaining %≤ 100%)

Biological target: IKZF1 (Homo sapiens, UniProt Q13422+Q96SW2)
Assay: as above
Details: 24 hours treatment, compounds at 50 nM and 500 nM (concentration behind the class not stated)

Row | Structure (SMILES) | substrate protein remaining % (IKZF 1)
7 | CC1(C)CCC(C(=O)N2CCN(C3CCN(Cc4cc(F)c5c(c4)CN(C4CCC(=O)NC4=O)C5=O)CC3(F)F)CC2)=C(c2ccc(Cl)cc2)C1 (centres unmarked) | B (80%< substrate protein remaining %≤ 100%)
8 | O=C1CCC(N2Cc3cc(CCN4CCC(N5CCN(C(c6ccccc6)c6ccccc6)CC5)C(F)(F)C4)ccc3C2=O)C(=O)N1 (centres unmarked) | B (80%< substrate protein remaining %≤ 100%)
9 | CC1(C)CCC(C(=O)N2CCN(C3CCN(C(=O)c4cccc5c4C(=O)N(C4CCC(=O)NC4=O)C5=O)CC3(F)F)CC2)=C(c2ccc(Cl)cc2)C1 (centres unmarked) | B (80%< substrate protein remaining %≤ 100%)
10 | O=C1CCC(N2Cc3cc(CN4CCC(N5CCN(C(c6ccccc6)c6ccccn6)CC5)C(F)(F)C4)ccc3C2=O)C(=O)N1 (centres unmarked) | A (0% ≤ substrate protein remaining % ≤ 80%)
11 | O=C1CCC(N2Cc3cc(CN4CCC(N5CCN(c6noc7cc(F)ccc67)CC5)CC4)ccc3C2=O)C(=O)N1 (centres unmarked) | A (0% ≤ substrate protein remaining % ≤ 80%)
12 | O=C1CCC(N2Cc3cc(C(=O)N4CCC(N5CCC(c6noc7cc(F)ccc67)CC5)C(F)(F)C4)cc(F)c3C2=O)C(=O)N1 (centres unmarked) | B (80%< substrate protein remaining %≤ 100%)

Biological target: IKZF2 (Homo sapiens, UniProt Q96SW2+Q9UKS7)
Assay: as above
Details: 24 hours treatment, compounds at 50 nM and 500 nM (concentration behind the class not stated)

Row | Structure (SMILES) | substrate protein remaining % (IKZF2)
13 | CC1(C)CCC(C(=O)N2CCN(C3CCN(Cc4cc(F)c5c(c4)CN(C4CCC(=O)NC4=O)C5=O)CC3(F)F)CC2)=C(c2ccc(Cl)cc2)C1 (centres unmarked) | B (80%< substrate protein remaining %≤ 100%)
14 | O=C1CCC(N2Cc3cc(CCN4CCC(N5CCN(C(c6ccccc6)c6ccccc6)CC5)C(F)(F)C4)ccc3C2=O)C(=O)N1 (centres unmarked) | B (80%< substrate protein remaining %≤ 100%)
15 | CC1(C)CCC(C(=O)N2CCN(C3CCN(C(=O)c4cccc5c4C(=O)N(C4CCC(=O)NC4=O)C5=O)CC3(F)F)CC2)=C(c2ccc(Cl)cc2)C1 (centres unmarked) | B (80%< substrate protein remaining %≤ 100%)
16 | O=C1CCC(N2Cc3cc(CN4CCC(N5CCN(C(c6ccccc6)c6ccccn6)CC5)C(F)(F)C4)ccc3C2=O)C(=O)N1 (centres unmarked) | A (0% ≤ substrate protein remaining % ≤ 80%)
17 | O=C1CCC(N2Cc3cc(CN4CCC(N5CCN(c6noc7cc(F)ccc67)CC5)CC4)ccc3C2=O)C(=O)N1 (centres unmarked) | B (80%< substrate protein remaining %≤ 100%)
18 | O=C1CCC(N2Cc3cc(C(=O)N4CCC(N5CCC(c6noc7cc(F)ccc67)CC5)C(F)(F)C4)cc(F)c3C2=O)C(=O)N1 (centres unmarked) | B (80%< substrate protein remaining %≤ 100%)

Biological target: IKZF3 (Homo sapiens, UniProt Q96SW2+Q9UKT9)
Assay: as above
Details: 24 hours treatment, compounds at 50 nM and 500 nM (concentration behind the class not stated)

Row | Structure (SMILES) | substrate protein remaining % (IKZF3)
19 | CC1(C)CCC(C(=O)N2CCN(C3CCN(Cc4cc(F)c5c(c4)CN(C4CCC(=O)NC4=O)C5=O)CC3(F)F)CC2)=C(c2ccc(Cl)cc2)C1 (centres unmarked) | B (80%< substrate protein remaining %≤ 100%)
20 | O=C1CCC(N2Cc3cc(CCN4CCC(N5CCN(C(c6ccccc6)c6ccccc6)CC5)C(F)(F)C4)ccc3C2=O)C(=O)N1 (centres unmarked) | B (80%< substrate protein remaining %≤ 100%)
21 | CC1(C)CCC(C(=O)N2CCN(C3CCN(C(=O)c4cccc5c4C(=O)N(C4CCC(=O)NC4=O)C5=O)CC3(F)F)CC2)=C(c2ccc(Cl)cc2)C1 (centres unmarked) | B (80%< substrate protein remaining %≤ 100%)
22 | O=C1CCC(N2Cc3cc(CN4CCC(N5CCN(C(c6ccccc6)c6ccccn6)CC5)C(F)(F)C4)ccc3C2=O)C(=O)N1 (centres unmarked) | A (0% ≤ substrate protein remaining % ≤ 80%)
23 | O=C1CCC(N2Cc3cc(CN4CCC(N5CCN(c6noc7cc(F)ccc67)CC5)CC4)ccc3C2=O)C(=O)N1 (centres unmarked) | A (0% ≤ substrate protein remaining % ≤ 80%)
24 | O=C1CCC(N2Cc3cc(C(=O)N4CCC(N5CCC(c6noc7cc(F)ccc67)CC5)C(F)(F)C4)cc(F)c3C2=O)C(=O)N1 (centres unmarked) | B (80%< substrate protein remaining %≤ 100%)

Biological target: WEE1 (Homo sapiens, UniProt P30291+Q96SW2)
Assay: as above
Details: 24 hours treatment, compounds at 50 nM and 500 nM (concentration behind the class not stated)

Row | Structure (SMILES) | substrate protein remaining % (WEE1)
25 | CC1(C)CCC(C(=O)N2CCN(C3CCN(Cc4cc(F)c5c(c4)CN(C4CCC(=O)NC4=O)C5=O)CC3(F)F)CC2)=C(c2ccc(Cl)cc2)C1 (centres unmarked) | B (80%< substrate protein remaining %≤ 100%)
26 | O=C1CCC(N2Cc3cc(CCN4CCC(N5CCN(C(c6ccccc6)c6ccccc6)CC5)C(F)(F)C4)ccc3C2=O)C(=O)N1 (centres unmarked) | B (80%< substrate protein remaining %≤ 100%)
27 | CC1(C)CCC(C(=O)N2CCN(C3CCN(C(=O)c4cccc5c4C(=O)N(C4CCC(=O)NC4=O)C5=O)CC3(F)F)CC2)=C(c2ccc(Cl)cc2)C1 (centres unmarked) | B (80%< substrate protein remaining %≤ 100%)
28 | O=C1CCC(N2Cc3cc(CN4CCC(N5CCN(C(c6ccccc6)c6ccccn6)CC5)C(F)(F)C4)ccc3C2=O)C(=O)N1 (centres unmarked) | A (0% ≤ substrate protein remaining % ≤ 80%)
29 | O=C1CCC(N2Cc3cc(CN4CCC(N5CCN(c6noc7cc(F)ccc67)CC5)CC4)ccc3C2=O)C(=O)N1 (centres unmarked) | A (0% ≤ substrate protein remaining % ≤ 80%)
30 | O=C1CCC(N2Cc3cc(C(=O)N4CCC(N5CCC(c6noc7cc(F)ccc67)CC5)C(F)(F)C4)cc(F)c3C2=O)C(=O)N1 (centres unmarked) | A (0% ≤ substrate protein remaining % ≤ 80%)

Biological target: CK1α (Homo sapiens, UniProt P48729+Q96SW2)
Assay: as above
Details: 24 hours treatment, compounds at 50 nM and 500 nM (concentration behind the class not stated)

Row | Structure (SMILES) | substrate protein remaining % (CK1a)
31 | CC1(C)CCC(C(=O)N2CCN(C3CCN(Cc4cc(F)c5c(c4)CN(C4CCC(=O)NC4=O)C5=O)CC3(F)F)CC2)=C(c2ccc(Cl)cc2)C1 (centres unmarked) | A (0% ≤ substrate protein remaining % ≤ 80%)
32 | O=C1CCC(N2Cc3cc(CCN4CCC(N5CCN(C(c6ccccc6)c6ccccc6)CC5)C(F)(F)C4)ccc3C2=O)C(=O)N1 (centres unmarked) | B (80%< substrate protein remaining %≤ 100%)
33 | CC1(C)CCC(C(=O)N2CCN(C3CCN(C(=O)c4cccc5c4C(=O)N(C4CCC(=O)NC4=O)C5=O)CC3(F)F)CC2)=C(c2ccc(Cl)cc2)C1 (centres unmarked) | B (80%< substrate protein remaining %≤ 100%)
34 | O=C1CCC(N2Cc3cc(CN4CCC(N5CCN(C(c6ccccc6)c6ccccn6)CC5)C(F)(F)C4)ccc3C2=O)C(=O)N1 (centres unmarked) | B (80%< substrate protein remaining %≤ 100%)
35 | O=C1CCC(N2Cc3cc(CN4CCC(N5CCN(c6noc7cc(F)ccc67)CC5)CC4)ccc3C2=O)C(=O)N1 (centres unmarked) | B (80%< substrate protein remaining %≤ 100%)
36 | O=C1CCC(N2Cc3cc(C(=O)N4CCC(N5CCC(c6noc7cc(F)ccc67)CC5)C(F)(F)C4)cc(F)c3C2=O)C(=O)N1 (centres unmarked) | B (80%< substrate protein remaining %≤ 100%)

Biological target: CRBN (Homo sapiens, UniProt Q96SW2)
Assay: CRBN binding affinity by HTRF (CEREBLON BINDING kit)
Details: CRBN binding, HTRF, compound at 0.5 µM

Row | Structure (SMILES) | Inhibition Rate at 0.5 µM (%)
37 | O=C1CCC(N2Cc3ccc(CN4CCC(N5CCN(c6cccc(Cl)c6Cl)CC5)CC4)cc3C2=S)C(=O)N1 (centres unmarked) | a4 (40% < a4 ≤ 53%)
38 | CC1(C)CCC(C(=O)N2CCN(C3CCN(Cc4cc(F)c5c(c4)CN(C4CCC(=O)NC4=O)C5=O)CC3(F)F)CC2)=C(c2ccc(Cl)cc2)C1 (centres unmarked) | a5 (53% < a5 ≤ 60%)
39 | O=C1CCC(N2Cc3cc(CCN4CCC(N5CCN(C(c6ccccc6)c6ccccc6)CC5)C(F)(F)C4)ccc3C2=O)C(=O)N1 (centres unmarked) | a7 (70% < a7 ≤80%)
40 | CC1(C)CCC(C(=O)N2CCN(C3CCN(C(=O)c4cccc5c4C(=O)N(C4CCC(=O)NC4=O)C5=O)CC3(F)F)CC2)=C(c2ccc(Cl)cc2)C1 (centres unmarked) | a2 (20% < a2 ≤ 30%)
41 | O=C1CCC(N2Cc3cc(C(=O)N4CCC(N5CCC(c6noc7cc(F)ccc67)CC5)C(F)(F)C4)cc(F)c3C2=O)C(=O)N1 (centres unmarked) | a5 (53% < a5 ≤ 60%)

Same assay, conditions: CRBN binding, HTRF, compound at 2 µM

Row | Structure (SMILES) | Inhibition Rate at 2 µM (%)
42 | O=C1CCC(N2Cc3ccc(CN4CCC(N5CCN(c6cccc(Cl)c6Cl)CC5)CC4)cc3C2=S)C(=O)N1 (centres unmarked) | a8 (80% < a8 ≤100%)
43 | CC1(C)CCC(C(=O)N2CCN(C3CCN(Cc4cc(F)c5c(c4)CN(C4CCC(=O)NC4=O)C5=O)CC3(F)F)CC2)=C(c2ccc(Cl)cc2)C1 (centres unmarked) | a8 (80% < a8 ≤100%)
44 | O=C1CCC(N2Cc3cc(CCN4CCC(N5CCN(C(c6ccccc6)c6ccccc6)CC5)C(F)(F)C4)ccc3C2=O)C(=O)N1 (centres unmarked) | a8 (80% < a8 ≤100%)
45 | CC1(C)CCC(C(=O)N2CCN(C3CCN(C(=O)c4cccc5c4C(=O)N(C4CCC(=O)NC4=O)C5=O)CC3(F)F)CC2)=C(c2ccc(Cl)cc2)C1 (centres unmarked) | a5 (53% < a5 ≤ 60%)
46 | O=C1CCC(N2Cc3cc(C(=O)N4CCC(N5CCC(c6noc7cc(F)ccc67)CC5)C(F)(F)C4)cc(F)c3C2=O)C(=O)N1 (centres unmarked) | a8 (80% < a8 ≤100%)

Same assay, conditions: read-out: HTRF IC50; human Cereblon WT GST-tagged protein; 3 hours at room temperature

Row | Structure (SMILES) | IC50 [nM]
47 | O=C1CCC(N2Cc3cc(CN4CCC(N5CCN(C(c6ccccc6)c6ccccn6)CC5)C(F)(F)C4)ccc3C2=O)C(=O)N1 (centres unmarked) | 500 to 1000
48 | O=C1CCC(N2Cc3cc(CN4CCC(N5CCN(c6noc7cc(F)ccc67)CC5)CC4)ccc3C2=O)C(=O)N1 (centres unmarked) | 100 to 500

Tested on: Human myeloid monocytic leukemia cell (MV-4-11)
Assay: Tumor cell proliferation inhibition (cell viability assay)
Details: MV-4-11 cells; 10 nM; 96 hours

Row | Structure (SMILES) | Inhibition Rate at 10 nM (%)
49 | O=C1CCC(N2Cc3ccc(CN4CCC(N5CCN(c6cccc(Cl)c6Cl)CC5)CC4)cc3C2=S)C(=O)N1 (centres unmarked) | 1a8 (60% ≤ 1a8 < 70%)

Same assay, conditions: MV-4-11 cells; 500 nM; 96 hours

Row | Structure (SMILES) | Inhibition Rate at 500 nM (%)
50 | O=C1CCC(N2Cc3ccc(CN4CCC(N5CCN(c6cccc(Cl)c6Cl)CC5)CC4)cc3C2=S)C(=O)N1 (centres unmarked) | 1a9 (70% ≤ 1a9 < 80%)
